Results: ChEMBL document CHEMBL1136823, “Lead discovery of alpha,beta-unsaturated sulfones from a combinatorial library as inhibitors of inducible VCAM-1 expression” (Bioorg Med Chem Lett, 2003)

Test: In vitro inhibition of inducible vascular cell adhesion molecule-1 (VCAM-1) expression in Human aortic endothelial cells (HAEC)

SMILES: C=CS(=O)(=O)C=C
- IC50: 5 µM
